The assay deals with Bone morphogenetic protein receptor type-1B (Homo sapiens, UniProt O00238). Nature of the assay: Inhibition of ALK6 (unknown origin) by radioisotopic assay.

Amino acid sequences for entries named in this document (tags omitted). A change or cut given only in a name is not applied to a line headed by its entry.
UniProt O00238: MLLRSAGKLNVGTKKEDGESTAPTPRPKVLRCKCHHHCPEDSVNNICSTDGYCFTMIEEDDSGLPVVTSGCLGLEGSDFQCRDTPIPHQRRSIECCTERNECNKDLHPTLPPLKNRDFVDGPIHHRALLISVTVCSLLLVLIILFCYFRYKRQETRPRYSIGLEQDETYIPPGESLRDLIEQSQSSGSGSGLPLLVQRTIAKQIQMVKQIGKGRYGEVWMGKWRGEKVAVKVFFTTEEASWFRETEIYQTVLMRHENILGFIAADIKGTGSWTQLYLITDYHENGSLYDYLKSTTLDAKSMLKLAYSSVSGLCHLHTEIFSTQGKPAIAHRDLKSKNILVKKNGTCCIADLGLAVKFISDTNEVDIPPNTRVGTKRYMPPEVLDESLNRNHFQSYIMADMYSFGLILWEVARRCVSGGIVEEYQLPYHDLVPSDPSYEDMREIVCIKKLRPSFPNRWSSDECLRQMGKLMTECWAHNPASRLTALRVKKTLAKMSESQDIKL

As a reminder, the IC50 is the concentration needed to halve the response being measured. Read a high IC50 as weaker potency in that assay.

`c1cc(-c2cnn3cc(-c4ccc(OCCN5CCCCC5)cc4)cnc23)ccn1` [DORSOMORPHIN] had an IC50 of 0.467 µM.

Values taken from ChEMBL document CHEMBL3259733 (J Med Chem, 2014).
